# Patent US4113858A, “Novel compounds, compositions and methods of their use” (St. Luke's Hospital, priority 1976, dated 1978)
# Ends that are not written are not given here.
# B1: Basic Protein: native protein isolated from bovine myelin known to induce disease (EAE) (protein, UniProt P02687 1-169, looked up)
# Myelin basic protein: AAQKRPSQRSKYLASASTMDHARHGFLPRHRDTGILDSLGRFFGSDRGAPKRGSGKDGHHAARTTHYGSLPQKAQGHRPQDENPVVHFFKNIVTPRTPPPSQGKGRGLSLSRFSWGAEGQKPGFGYGGRASDYKSAHKGLKGHDAQGTLSKIFKLGGRDSRSGSPMARR
# Assays:
# [1] = system: guinea pigs, rabbits and rats; conditions: for disease induction (conclusion from Tables 1, 1A and 1B): compared to control Group III
# [2] = system: guinea pigs, rats and rabbits; test: Prevention experiments, statements for all three species; format: in vivo; conditions: groups I, II and III treated prior to challenge with the disease inducing peptide
# Description: Pretreatment of the animals with formula (IX) induced the sensitization of cells with the synthetic disease non-inducing peptide which allows the sensitized cells to recognize any agent with the same structural characteristics. Thus, when the disease inducing peptide or the native basic protein is administered at day 7 it is recognized by the synthetic peptide sensitized cells and prevents the native materials from inducing the disease as it does in the group B test animals.
# Guinea Pigs = conditions: Group 9, 4.0 mg daily
Molecule,"disease induction (conclusion from Tables 1, 1A and 1B) [1]",also measured
"GGWGGGGQK [Formula (IX), H -- (Gly)2 -- Trp -- (Gly)4 -- Gln -- Lys -- OH]",inactive and does not induce disease,"clinical signs of disease (loss of weight, tremors, incontinence) within the expected time, less than 20 days ([1]; 10, 100, 250, 500 and 1500 micrograms single s.c. dose in complete Freund's adjuvant): None of the animals showed any clinical signs of disease; health and growth rate ([1]; observed for more than 90 days): remain healthy and their growth rate is not different from the normal; clinical evidence of the disease after challenge [2]: show no clinical evidence of the disease and remain healthy for 90 days"
"FSWQKFSWQKFSWQKFSWQKG [Compound V, H -- Phe -- Ser -- Trp -- Gln -- Lys]4 Gly -- OH]",,time until paralyzed animals regained the use of their hind legs (Guinea Pigs): 4-6 treatment days
"FSWGAEGQK [Formula (X), H -- Phe -- Ser -- Trp -- Gly -- Ala -- Glu -- Gly -- Gln -- Lys -- OH, reference compound]",the disease is induced,
"TTHYGSLPQK [Formula (XI), H -- Thr -- Thr -- His -- Tyr -- Gly -- Ser -- Leu -- Pro -- Gln -- Lys -- OH, reference compound]",the disease is induced,
B1,the disease is induced,
